Laboratory results from patent US9751885B2, “Cyclopropanamine compound and use thereof” (Takeda Pharmaceutical Company Limited, priority 2012, dated 2017).
Structures can show the parent of a compound that is named as a salt.

Amino acid sequences for entries named in this document (tags omitted).
UniProt P21397, whole entry: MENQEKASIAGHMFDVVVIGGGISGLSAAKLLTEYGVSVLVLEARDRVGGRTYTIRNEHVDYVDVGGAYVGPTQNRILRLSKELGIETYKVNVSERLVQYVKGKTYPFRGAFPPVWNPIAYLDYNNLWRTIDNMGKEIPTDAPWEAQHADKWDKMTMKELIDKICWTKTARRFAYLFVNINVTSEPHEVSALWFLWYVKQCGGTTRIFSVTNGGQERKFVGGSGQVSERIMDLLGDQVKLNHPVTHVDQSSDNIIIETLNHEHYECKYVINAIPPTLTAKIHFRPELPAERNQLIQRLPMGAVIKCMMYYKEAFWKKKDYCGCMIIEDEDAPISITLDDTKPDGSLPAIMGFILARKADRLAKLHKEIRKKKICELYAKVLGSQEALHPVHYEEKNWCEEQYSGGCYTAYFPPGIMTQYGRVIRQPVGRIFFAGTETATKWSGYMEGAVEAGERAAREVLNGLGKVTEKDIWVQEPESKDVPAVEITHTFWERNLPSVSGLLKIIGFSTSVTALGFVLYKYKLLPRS
UniProt P27338, whole entry: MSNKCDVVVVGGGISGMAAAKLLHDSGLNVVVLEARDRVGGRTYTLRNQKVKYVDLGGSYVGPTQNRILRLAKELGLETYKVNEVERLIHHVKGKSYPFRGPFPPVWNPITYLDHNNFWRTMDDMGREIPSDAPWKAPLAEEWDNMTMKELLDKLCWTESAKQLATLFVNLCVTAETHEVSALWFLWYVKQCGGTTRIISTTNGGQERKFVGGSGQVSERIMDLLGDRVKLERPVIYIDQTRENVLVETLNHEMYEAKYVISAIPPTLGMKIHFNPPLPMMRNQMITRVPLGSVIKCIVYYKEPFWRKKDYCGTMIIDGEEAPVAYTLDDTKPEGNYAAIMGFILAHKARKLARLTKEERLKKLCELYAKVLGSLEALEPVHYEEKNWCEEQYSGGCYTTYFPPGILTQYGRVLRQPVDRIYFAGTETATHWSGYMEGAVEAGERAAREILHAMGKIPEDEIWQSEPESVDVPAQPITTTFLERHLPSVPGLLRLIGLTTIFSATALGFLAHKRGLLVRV

How the values were obtained:
[1] = biological target: MAO-A enzyme (Homo sapiens (Human), UniProt P21397); assay: Measurement of MAO-A inhibitory activity (MAO-Glo Assay); format: biochemical
[2] = biological target: MAO-B enzyme (Homo sapiens (Human), UniProt P27338); assay: Measurement of MAO-B inhibitory activity (MAO-Glo Assay); conditions: read-out: MAO-B IC50 value;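 also: luminescence read-out, compound preincubated 10 min with enzyme then reacted 60 min at room temperature, inhibition relative to enzyme reaction without compound, blank lacking enzyme and compound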

| Compound | IC50 [1] [µM] | IC50 [2] [µM] |
| --- | --- | --- |
| O=C(NC1CCC(F)(F)CC1)c1cccc([C@@H]2C[C@H]2NCC2CCOCC2)c1 (relative stereo) [Example 84, N-(4,4-difluorocyclohexyl)-3-(trans-2-((tetrahydro-2H-pyran-4-ylmethyl)amino)cyclopropyl)benzamide hydrochloride] | > 10 | > 10 |
| CC(C)(C)CN[C@@H]1C[C@H]1c1cccc(C(=O)NC2CCS(=O)(=O)CC2)c1 (relative stereo) [Example 85, 3-(trans-2-((2,2-dimethylpropyl)amino)cyclopropyl)-N-(1,1-dioxidotetrahydro-2H-thiopyran-4-yl)benzamide hydrochloride] | > 10 | > 10 |
| CC(C)(C)CN[C@@H]1C[C@H]1c1cccc(C(=O)Nc2cnn(C(C)(C)C)c2)c1 (relative stereo) [Example 88, N-(1-tert-butyl-1H-pyrazol-4-yl)-3-(trans-2-((2,2-dimethylpropyl)amino)cyclopropyl)benzamide dihydrochloride] | > 10 | > 10 |
| Cn1cc(NC(=O)c2cc([C@@H]3C[C@H]3NCC3CC3)ccc2F)cn1 (relative stereo) [Example 91, 5-(trans-2-((cyclopropylmethyl)amino)cyclopropyl)-2-fluoro-N-(1-methyl-1H-pyrazol-4-yl)benzamide dihydrochloride] | > 10 | > 10 |
| COc1ccc([C@@H]2C[C@H]2NCC2CC2)cc1C(=O)Nc1cnn(C)c1 (relative stereo) [Example 94, 5-(trans-2-((cyclopropylmethyl)amino)cyclopropyl)-2-methoxy-N-(1-methyl-1H-pyrazol-4-yl)benzamide dihydrochloride] | > 10 | > 10 |
| Cc1cc(NC(=O)c2cccc([C@@H]3C[C@H]3NCC3CC3)c2)n(C)n1 (relative stereo) [Example 107, 3-(trans-2-((cyclopropylmethyl)amino)cyclopropyl)-N-(1,3-dimethyl-1H-pyrazol-5-yl)benzamide dihydrochloride] | > 10 | > 10 |
| O=C(c1cccc([C@@H]2C[C@H]2NCC2CC2)c1)N1Cc2ccccc2C1 (relative stereo) [Example 113, (3-(trans-2-((cyclopropylmethyl)amino)cyclopropyl)phenyl) (1,3-dihydro-2H-isoindol-2-yl)methanone trifluoroacetate] | 2.9 | > 10 |
| O=C(NCC1CC(F)(F)C1)c1cccc([C@@H]2C[C@H]2NCC2CC2)c1 (relative stereo) [Example 116, 3-(trans-2-((cyclopropylmethyl)amino)cyclopropyl)-N-((3,3-difluorocyclobutyl)methyl) benzamide trifluoroacetate] | > 10 | > 10 |
| O=C(NC1CCN(Cc2ccccc2)CC1)c1cccc([C@@H]2C[C@H]2NCC2CC2)c1 (relative stereo) [Example 119, N-(1-benzylpiperidin-4-yl)-3-(trans-2-((cyclopropylmethyl)amino)cyclopropyl)benzamide bis (trifluoroacetate)] | > 10 | > 10 |
| O=C(Nc1ccccc1F)c1cccc([C@@H]2C[C@H]2NCC2CC2)c1 (relative stereo) [Example 121, 3-(trans-2-((cyclopropylmethyl)amino)cyclopropyl)-N-(2-fluorophenyl) benzamide trifluoroacetate] | > 10 | > 10 |
| O=C(Nc1ccc(N2CCOCC2)cc1)c1cccc([C@@H]2C[C@H]2NCC2CC2)c1 (relative stereo) [Example 125, 3-(trans-2-((cyclopropylmethyl)amino)cyclopropyl)-N-(4-(morpholin-4-yl)phenyl)benzamide bis(trifluoroacetate)] | > 10 | > 10 |
| O=C(Nc1ccc(CN2CCS(=O)(=O)CC2)cc1)c1cccc([C@@H]2C[C@H]2NCC2CC2)c1 (relative stereo) [Example 126, 3-(trans-2-((cyclopropylmethyl)amino)cyclopropyl)-N-(4-((1,1-dioxidothiomorpholin-4-yl)methyl)phenyl)benzamide bis (trifluoroacetate)] | > 10 | > 10 |
| COc1cc(OC)nc(-c2ccc(NC(=O)c3cccc([C@@H]4C[C@H]4NCC4CC4)c3)cc2)n1 (relative stereo) [Example 128, 3-(trans-2-((cyclopropylmethyl)amino)cyclopropyl)-N-(4-(4,6-dimethoxypyrimidin-2-yl)phenyl)benzamide trifluoroacetate] | > 10 | > 10 |
| O=C(Nc1cccc(-c2ccccc2)c1)c1cccc([C@@H]2C[C@H]2NCC2CC2)c1 (relative stereo) [Example 130, N-(biphenyl-3-yl)-3-(trans-2-((cyclopropylmethyl)amino)cyclopropyl)benzamide trifluoroacetate] | 7.2 | > 10 |
| Cc1nc(-c2cccc(NC(=O)c3cccc([C@@H]4C[C@H]4NCC4CC4)c3)c2)cs1 (relative stereo) [Example 131, 3-(trans-2-((cyclopropylmethyl)amino)cyclopropyl)-N-(3-(2-methyl-1,3-thiazol-4-yl)phenyl)benzamide trifluoroacetate] | > 10 | > 10 |
| O=C(Nc1cccc(-c2nnc3n2CCCCC3)c1)c1cccc([C@@H]2C[C@H]2NCC2CC2)c1 (relative stereo) [Example 133, 3-(trans-2-((cyclopropylmethyl)amino)cyclopropyl)-N-(3-(6,7,8,9-tetrahydro-5H-[1,2,4]triazolo[4,3-a]azepin-3-yl)phenyl)benzamide trifluoroacetate] | > 10 | > 10 |
| O=C(Nc1ccc(N2CCOCC2)nc1)c1cccc([C@@H]2C[C@H]2NCC2CC2)c1 (relative stereo) [Example 134, 3-(trans-2-((cyclopropylmethyl)amino)cyclopropyl)-N-(6-(morpholin-4-yl)pyridin-3-yl)benzamide tris(trifluoroacetate)] | > 10 | > 10 |
| O=C(Nc1nc2ccc(Oc3ccccc3)cc2s1)c1cccc([C@@H]2C[C@H]2NCC2CC2)c1 (relative stereo) [Example 135, 3-(trans-2-((cyclopropylmethyl)amino)cyclopropyl)-N-(6-phenoxy-1,3-benzothiazol-2-yl)benzamide trifluoroacetate] | > 10 | > 10 |
| Cn1nc(-c2cccs2)cc1NC(=O)c1cccc([C@@H]2C[C@H]2NCC2CC2)c1 (relative stereo) [Example 136, 3-(trans-2-((cyclopropylmethyl)amino)cyclopropyl)-N-(1-methyl-3-(2-thienyl)-1H-pyrazol-5-yl)benzamide bis(trifluoroacetate)] | > 10 | > 10 |
| O=C(Nc1nccs1)c1cccc([C@@H]2C[C@H]2NCC2CC2)c1 (relative stereo) [Example 138, 3-(trans-2-((cyclopropylmethyl)amino)cyclopropyl)-N-(1,3-thiazol-2-yl)benzamide trifluoroacetate] | > 10 | > 10 |
| Cn1nc(C(C)(C)C)cc1NC(=O)c1cccc([C@@H]2C[C@H]2NCC2CC2)c1 (relative stereo) [Example 141, N-(3-tert-butyl-1-methyl-1H-pyrazol-5-yl)-3-(trans-2-((cyclopropylmethyl)amino)cyclopropyl)benzamide bis(trifluoroacetate)] | > 10 | > 10 |
| Cc1noc(C)c1NC(=O)c1cccc([C@@H]2C[C@H]2NCC2CC2)c1 (relative stereo) [Example 142, 3-(trans-2-((cyclopropylmethyl)amino)cyclopropyl)-N-(3,5-dimethyl-1,2-oxazol-4-yl)benzamide trifluoroacetate] | > 10 | > 10 |
| O=C(Nc1ccc2[nH]cnc2c1)c1cccc([C@@H]2C[C@H]2NCC2CC2)c1 (relative stereo) [Example 145, N-(1H-benzimidazol-5-yl)-3-(trans-2-((cyclopropylmethyl)amino)cyclopropyl)benzamide bis(trifluoroacetate)] | > 10 | > 10 |
| O=C(Nc1ccc2c(c1)nc1n2CCCCC1)c1cccc([C@@H]2C[C@H]2NCC2CC2)c1 (relative stereo) [Example 148, 3-(trans-2-((cyclopropylmethyl)amino)cyclopropyl)-N-(7,8,9,10-tetrahydro-6H-azepino[1,2-a]benzimidazol-3-yl)benzamide bis(trifluoroacetate)] | > 10 | > 10 |
| O=C(Nc1nc(O)c2c(n1)CCCC2)c1cccc([C@@H]2C[C@H]2NCC2CC2)c1 (relative stereo) [Example 150, 3-(trans-2-((cyclopropylmethyl)amino)cyclopropyl)-N-(4-hydroxy-5,6,7,8-tetrahydroquinazolin-2-yl)benzamide trifluoroacetate] | > 10 | > 10 |
| CC(C)(C)CN[C@@H]1C[C@H]1c1cccc(C(=O)NC2CCOCC2)c1 (relative stereo) [Example 153, 3-(trans-2-((2,2-dimethylpropyl)amino)cyclopropyl)-N-(tetrahydro-2H-pyran-4-yl)benzamide hydrochloride] | > 10 | > 10 |
| Cn1cc(NC(=O)c2cccc([C@@H]3C[C@H]3NCC(C)(C)C)c2)cn1 (relative stereo) [Example 155, 3-(trans-2-((2,2-dimethylpropyl)amino)cyclopropyl)-N-(1-methyl-1H-pyrazol-4-yl)benzamide dihydrochloride] | > 10 | > 10 |
| Cc1c(NC(=O)c2cccc([C@@H]3C[C@H]3NCC(C)(C)C)c2)cnn1C (relative stereo) [Example 156, 3-(trans-2-((2,2-dimethylpropyl)amino)cyclopropyl)-N-(1,5-dimethyl-1H-pyrazol-4-yl)benzamide dihydrochloride] | > 10 | > 10 |
